Data published in the supplement of paper PMC11403291.

Sequences of proteins named here, by UniProt entry; tags and fusion partners are left off. A change or cut given only in a name is not applied to a line headed by its entry.
UniProt P30291: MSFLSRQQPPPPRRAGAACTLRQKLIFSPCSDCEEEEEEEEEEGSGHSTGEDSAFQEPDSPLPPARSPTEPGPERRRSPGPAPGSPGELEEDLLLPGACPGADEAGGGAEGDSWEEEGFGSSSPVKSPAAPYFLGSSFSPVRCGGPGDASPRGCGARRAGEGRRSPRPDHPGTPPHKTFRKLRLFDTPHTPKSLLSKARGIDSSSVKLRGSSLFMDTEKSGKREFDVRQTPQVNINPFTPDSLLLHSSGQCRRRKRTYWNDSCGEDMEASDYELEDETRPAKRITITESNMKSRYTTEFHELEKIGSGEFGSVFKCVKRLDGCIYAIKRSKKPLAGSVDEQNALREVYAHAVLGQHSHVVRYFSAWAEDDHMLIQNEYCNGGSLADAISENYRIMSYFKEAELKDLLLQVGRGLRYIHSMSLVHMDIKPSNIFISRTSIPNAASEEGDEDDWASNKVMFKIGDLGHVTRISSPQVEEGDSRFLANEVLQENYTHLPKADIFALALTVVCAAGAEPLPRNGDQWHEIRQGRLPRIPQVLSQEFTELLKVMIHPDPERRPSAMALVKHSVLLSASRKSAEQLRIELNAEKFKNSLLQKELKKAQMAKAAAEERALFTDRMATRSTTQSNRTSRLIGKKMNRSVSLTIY
UniProt P04629: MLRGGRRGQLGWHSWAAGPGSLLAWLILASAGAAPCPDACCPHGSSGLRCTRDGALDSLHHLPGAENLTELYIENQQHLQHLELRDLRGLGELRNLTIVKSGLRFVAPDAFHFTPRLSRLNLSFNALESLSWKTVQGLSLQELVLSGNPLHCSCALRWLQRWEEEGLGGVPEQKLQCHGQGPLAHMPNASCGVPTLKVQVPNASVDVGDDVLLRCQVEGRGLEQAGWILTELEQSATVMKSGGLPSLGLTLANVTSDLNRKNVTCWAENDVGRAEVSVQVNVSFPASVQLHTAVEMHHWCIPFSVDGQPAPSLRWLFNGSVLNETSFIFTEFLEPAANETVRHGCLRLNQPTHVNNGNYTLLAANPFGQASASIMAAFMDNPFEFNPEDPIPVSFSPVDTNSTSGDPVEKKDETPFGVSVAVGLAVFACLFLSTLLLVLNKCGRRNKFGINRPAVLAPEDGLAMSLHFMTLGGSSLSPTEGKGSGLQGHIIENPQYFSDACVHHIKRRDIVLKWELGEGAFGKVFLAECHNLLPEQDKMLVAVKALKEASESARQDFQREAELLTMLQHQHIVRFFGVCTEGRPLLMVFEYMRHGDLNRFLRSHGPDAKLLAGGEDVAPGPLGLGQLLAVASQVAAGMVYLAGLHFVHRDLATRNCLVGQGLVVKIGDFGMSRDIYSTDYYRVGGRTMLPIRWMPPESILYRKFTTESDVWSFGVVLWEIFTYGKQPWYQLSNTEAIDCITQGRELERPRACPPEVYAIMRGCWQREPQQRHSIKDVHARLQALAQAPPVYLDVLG

Key:
Test in all cases: apparent dissociation constant pKd app (kinobead competition) (-log10(M)); higher = stronger binding
WEE1 = WEE1 (UniProt P30291)
TAOK3 = molecular target: T1, TAOK3 (UniProt Q9H2K8)
T1 sequence (whole entry): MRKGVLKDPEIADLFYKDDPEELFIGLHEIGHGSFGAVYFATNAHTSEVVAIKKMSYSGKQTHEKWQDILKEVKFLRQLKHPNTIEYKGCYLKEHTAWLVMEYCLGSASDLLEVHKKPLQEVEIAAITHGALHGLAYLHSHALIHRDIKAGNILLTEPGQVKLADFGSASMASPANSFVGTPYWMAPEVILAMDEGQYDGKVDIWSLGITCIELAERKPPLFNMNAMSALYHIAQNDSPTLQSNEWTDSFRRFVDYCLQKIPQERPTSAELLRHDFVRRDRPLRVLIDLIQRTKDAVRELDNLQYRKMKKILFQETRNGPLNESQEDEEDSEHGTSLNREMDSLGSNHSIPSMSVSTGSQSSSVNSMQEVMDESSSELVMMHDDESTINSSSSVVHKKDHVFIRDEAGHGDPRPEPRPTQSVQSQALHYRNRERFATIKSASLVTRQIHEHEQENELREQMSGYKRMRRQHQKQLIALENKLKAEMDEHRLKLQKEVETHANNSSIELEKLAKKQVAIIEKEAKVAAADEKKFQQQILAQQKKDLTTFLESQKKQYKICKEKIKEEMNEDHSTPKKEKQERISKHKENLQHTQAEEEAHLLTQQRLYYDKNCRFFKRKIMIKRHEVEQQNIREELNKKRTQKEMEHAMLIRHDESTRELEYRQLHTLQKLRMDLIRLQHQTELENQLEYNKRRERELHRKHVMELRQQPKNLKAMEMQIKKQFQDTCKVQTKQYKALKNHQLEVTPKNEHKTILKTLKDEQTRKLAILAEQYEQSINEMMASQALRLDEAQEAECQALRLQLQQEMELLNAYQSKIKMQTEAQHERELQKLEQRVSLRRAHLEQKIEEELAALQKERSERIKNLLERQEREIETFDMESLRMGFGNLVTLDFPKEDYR

NTRK1 = NTRK1 (UniProt P04629)
ADRBK2 = molecular target: T2, ADRBK2 (UniProt P35626)
T2 sequence (whole entry): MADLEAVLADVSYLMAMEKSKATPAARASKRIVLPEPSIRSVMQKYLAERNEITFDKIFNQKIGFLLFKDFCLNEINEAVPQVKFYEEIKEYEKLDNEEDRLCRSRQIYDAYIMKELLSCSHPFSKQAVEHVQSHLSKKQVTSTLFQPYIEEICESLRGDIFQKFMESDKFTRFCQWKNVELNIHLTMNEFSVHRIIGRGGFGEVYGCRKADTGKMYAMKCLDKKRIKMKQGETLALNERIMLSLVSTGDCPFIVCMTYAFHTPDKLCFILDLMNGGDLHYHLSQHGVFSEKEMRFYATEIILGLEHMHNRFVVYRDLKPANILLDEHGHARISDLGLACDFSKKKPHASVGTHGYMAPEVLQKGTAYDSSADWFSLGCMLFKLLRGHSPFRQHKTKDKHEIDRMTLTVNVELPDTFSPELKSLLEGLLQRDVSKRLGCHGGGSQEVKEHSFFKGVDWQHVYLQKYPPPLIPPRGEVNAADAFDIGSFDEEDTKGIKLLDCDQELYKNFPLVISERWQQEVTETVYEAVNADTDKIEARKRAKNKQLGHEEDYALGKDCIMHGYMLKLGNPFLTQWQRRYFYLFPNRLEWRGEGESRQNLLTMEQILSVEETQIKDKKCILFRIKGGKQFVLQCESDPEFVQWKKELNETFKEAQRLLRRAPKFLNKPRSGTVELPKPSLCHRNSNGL

STK17A = molecular target: T3, STK17A (UniProt Q9UEE5)
T3 sequence (whole entry): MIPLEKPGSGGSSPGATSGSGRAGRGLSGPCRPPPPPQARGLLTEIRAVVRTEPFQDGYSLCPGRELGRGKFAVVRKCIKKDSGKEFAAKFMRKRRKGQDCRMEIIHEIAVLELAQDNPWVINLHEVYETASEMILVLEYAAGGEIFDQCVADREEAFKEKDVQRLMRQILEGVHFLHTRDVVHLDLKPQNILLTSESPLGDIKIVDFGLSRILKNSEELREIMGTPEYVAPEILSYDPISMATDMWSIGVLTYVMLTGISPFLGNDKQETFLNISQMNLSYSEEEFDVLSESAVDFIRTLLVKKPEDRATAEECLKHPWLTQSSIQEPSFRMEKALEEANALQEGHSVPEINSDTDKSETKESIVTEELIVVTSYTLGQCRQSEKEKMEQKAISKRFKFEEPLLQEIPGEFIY

TNK1 = molecular target: T4, TNK1 (UniProt Q13470)
T4 sequence (whole entry): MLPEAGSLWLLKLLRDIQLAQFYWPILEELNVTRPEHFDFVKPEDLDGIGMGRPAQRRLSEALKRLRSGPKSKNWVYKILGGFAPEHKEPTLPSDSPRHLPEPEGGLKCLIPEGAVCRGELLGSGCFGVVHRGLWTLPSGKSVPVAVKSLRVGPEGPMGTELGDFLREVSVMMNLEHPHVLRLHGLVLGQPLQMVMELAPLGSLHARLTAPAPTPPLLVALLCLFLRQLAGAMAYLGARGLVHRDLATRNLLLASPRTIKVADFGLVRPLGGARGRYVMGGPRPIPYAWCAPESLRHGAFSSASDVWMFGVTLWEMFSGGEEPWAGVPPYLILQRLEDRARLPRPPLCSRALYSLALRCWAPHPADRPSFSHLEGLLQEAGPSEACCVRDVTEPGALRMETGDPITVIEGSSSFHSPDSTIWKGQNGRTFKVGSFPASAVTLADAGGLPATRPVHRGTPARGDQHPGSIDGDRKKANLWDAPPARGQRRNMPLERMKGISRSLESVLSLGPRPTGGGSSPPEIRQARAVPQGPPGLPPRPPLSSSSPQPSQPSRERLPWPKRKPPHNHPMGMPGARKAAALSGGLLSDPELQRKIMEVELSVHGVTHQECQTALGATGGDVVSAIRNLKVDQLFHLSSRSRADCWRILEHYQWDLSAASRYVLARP

Structure (SMILES)	apparent dissociation constant pKd app (-log10) (WEE1)	apparent dissociation constant pKd app (-log10) (TAOK3)	apparent dissociation constant pKd app (-log10) (NTRK1)	apparent dissociation constant pKd app (-log10) (ADRBK2)	apparent dissociation constant pKd app (-log10) (STK17A)	apparent dissociation constant pKd app (-log10) (TNK1)
NC(=O)c1cccc2cn(-c3ccc([C@@H]4CCCNC4)cc3)nc12 [Niraparib]	< 4.8	< 4.5	< 4.7	< 4.6	< 4.6	< 4.9
O=C(c1cc(Cc2n[nH]c(=O)c3ccccc23)ccc1F)N1CCN(C(=O)C2CC2)CC1 [Olaparib]	< 4.8	< 4.5	< 4.7	< 4.6	< 4.6	< 4.9
Cn1ncnc1[C@H]1c2n[nH]c(=O)c3cc(F)cc(c23)N[C@@H]1c1ccc(F)cc1 [Talazoparib]	< 4.8	< 4.5	< 4.7	< 4.6	< 4.6	< 4.9
